# AlphaSeq binding of Ab-14 light chain variants to a spike HR2 peptide

All variants were tested on one target, the spike HR2 peptide PDVDLGDISGINAS (SARS-CoV-2).

Ab-14 is the parent antibody, in scFv form: VH, then three GGGGS repeats, then VL. The heavy chain is unchanged in all variants.
VH: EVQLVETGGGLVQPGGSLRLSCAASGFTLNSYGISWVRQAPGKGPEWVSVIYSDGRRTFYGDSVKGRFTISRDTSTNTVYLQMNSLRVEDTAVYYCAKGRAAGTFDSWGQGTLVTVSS
VL: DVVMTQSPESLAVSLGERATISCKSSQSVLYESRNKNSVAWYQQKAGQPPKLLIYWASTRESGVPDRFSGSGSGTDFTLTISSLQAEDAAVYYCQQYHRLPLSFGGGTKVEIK

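The starting antibody came from a phage panning campaign against this peptide. The library (AAYL50) carries one to three amino acid substitutions per variant, with no insertions or deletions. Affinity was read by AlphaSeq, a pooled yeast mating assay with surface-displayed partners. After mating in shaken culture at 30 °C for 16 h, diploids were selected and their barcode pairs sequenced. The ratio of observed to expected reads was calibrated, replicate by replicate, on BCL2-family standards whose Kd was known from biolayer interferometry. There are three technical replicates.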

Variants are written as CDR1, CDR2 and CDR3 of the light chain (limits as in the source). Parent: KSSQSVLYESRNKNSVA, WASTRES, QQYHRLPLS. Numbers give log10(Kd / nM), so 0 is 1 nM and 3 is 1 µM. Smaller is tighter. Averages over replicates are reported, and they cover detected replicates only. "not detected" means that the variant was in the library but no mating with the target was seen in any replicate; the authors take this as a sign of poor binding, and no number exists. Background: pairings of library AAYL50 with three empty control strains gave a value in 18% of cases (median 4.19, 5th percentile 2.99). Values in that range, when seen in few replicates, are hard to tell from nonspecific mating. Also given: how often the same scFv was detected with the empty control strains.

CDR-L1	CDR-L2	CDR-L3	log10 Kd (nM), mean	seen in	control signals
KSSQSVLYESITKNSVA	WASTRKS	QQYHRLPLS	2.57	3 of 3	0 of 9
KSRQSVLYESRNKNSSA	WAWTRES	QQYHRLPLS	4.89	2 of 3	2 of 9
KSSQSVNYESRNKNCVA	WASARES	QQYHRLPLS	2.17	1 of 3	1 of 9
KSSQSVLLESVNKNSVA	WASTRES	QQYHRLDLS	4.26	2 of 3	2 of 9
KSSQSVLYPSRQKNSVA	WASTRES	QQYPRLPLS	3.17	3 of 3	3 of 9
KSSQSVLYESRNKNSVS	VASTRES	QQYHHLPLS	not detected	0 of 3	1 of 9
KSSQSVLPESRNKNWVA	WASTRES	QWYHRLPLS	4.58	1 of 3	3 of 9
KSSQSPLYESRNKNSVA	WAVTRQS	QQYHRLPLS	2.82	3 of 3	1 of 9
KSSQSVLYNSRNKFSVA	WASTRES	QQYHRLPLY	not detected	0 of 3	0 of 9
KESQSVLYESRNKNSVA	WASTRES	TQYHRLFLS	3.93	1 of 3	1 of 9
KSQQSVLYESREKNSVA	WASTRES	QQYHRLPLS	1.27	3 of 3	4 of 9
KSSQSVLDESRNKNSVA	WAFTRES	QIYHRLPLS	2.18	3 of 3	3 of 9
KSCQSVLYESRNKNSVS	WASTRES	QQYHRLPTS	not detected	0 of 3	0 of 9
KSSQSDLYESRNKNSVA	WASTRED	QQYHRLMLS	not detected	0 of 3	0 of 9
KLSQSVLYESRNRNSVA	QASTRES	QQYHRLPLS	-0.17	3 of 3	5 of 9
KASQSVLYEFRNKNSVA	WASKRES	QQYHRLPLS	1.68	3 of 3	3 of 9
KSIQSVLTESRNKNSVA	WALTRES	QQYHRLPLS	5.15	1 of 3	1 of 9
KSSQSVLYESRNKNSVA	HGSTRES	QQYHCLPLS	0.80	3 of 3	4 of 9
KSSVSVLYENRNKNSVA	WASTRES	QQIHRLPLS	0.53	3 of 3	1 of 9
KSVQSVLYESRNPNSVA	WASQRES	QQYHRLPLS	0.86	3 of 3	5 of 9
KSSQSVLYESRNKNSVA	WSSTRES	QQIHRLPPS	not detected	0 of 3	0 of 9
KSSQSVLYESRNKNSVA	WASTREY	QQMHRLPLR	3.76	1 of 3	1 of 9
KSSQSVLYESRNKNMVA	WASCRES	QSYHRLPLS	3.47	2 of 3	0 of 9
KSSQSVVYESRGKVSVA	WASTRES	QQYHRLPLS	2.44	3 of 3	7 of 9
KSSCSVLYESQNKNSVA	WASTRES	QQYHRLPLS	1.05	3 of 3	4 of 9
KSSQSVLYESRNKNSVA	WASTRES	QQYHPLPTS	0.70	3 of 3	3 of 9
KSRQSVLYPSRNKNSVA	WASTRES	QQYHRLILS	not detected	0 of 3	3 of 9
KSSQSVLYESRNKNSVA	WAQTRES	QQYHRHPLK	1.24	3 of 3	0 of 9
YSSQSVLYESRNKNSYA	WLSTRES	QQYHRLPLS	not detected	0 of 3	0 of 9
KSSQSVLYESRNKNSVA	WASTDES	QTYVRLPLS	not detected	0 of 3	0 of 9
KSSQSVLYESINKNSVA	WASTRES	QDYHRLPES	not detected	0 of 3	1 of 9
KTSQSVLYESLNKNSVA	WASTREV	QQYHRLPLS	0.27	3 of 3	3 of 9
KSSQSVLYESRNKNSIY	WASTRES	QQYHRLPTS	not detected	0 of 3	4 of 9
KSSLSVLYESRNKCEVA	WASTRES	QQYHRLPLS	3.01	1 of 3	0 of 9
KSSQSVLRESRNMNSVA	WAKTRES	QQYHRLPLS	not detected	0 of 3	0 of 9
KSSQSVLYESRNKNSVA	CASTRES	QQYCRLPLS	3.97	3 of 3	2 of 9
KSSQSVLYESRKKNSVA	WASTRES	QQYDRLPLS	0.68	3 of 3	0 of 9
KSSQSVLYESRNKNSVL	WASWRES	QQYHRVPLS	not detected	0 of 3	1 of 9
KSSQSVLYESRNKNSVV	KASTRES	QQYHRWPLS	not detected	0 of 3	0 of 9
KSSQSVLYESRNKNSVA	SASTREP	QQYHRLPLS	0.10	3 of 3	8 of 9
ASSQSVLYESRNKNSVA	WASTRES	QQDHRLPLA	5.00	1 of 3	2 of 9
KSSQSVLYESRNKNSFA	AASTRES	QQYHRLPTS	4.12	2 of 3	2 of 9
SSKQSVLYESRNKNNVA	WASTRES	QQYHRLPLS	0.71	3 of 3	1 of 9
KSSQSVLYESGNKNSKA	WASTRCS	QQYHRLPLS	4.18	2 of 3	2 of 9
KSSQSILYTSRNKNVVA	WASTRES	QQYHRLPLS	5.71	3 of 3	2 of 9

Again, the first 6 entries without any signal:

CDR-L1,CDR-L2,CDR-L3,"log10 Kd (nM), mean",seen in,control signals
KSSQSVLYESRNKNSVS,VASTRES,QQYHHLPLS,not detected,0 of 3,1 of 9
KSSQSVLYNSRNKFSVA,WASTRES,QQYHRLPLY,not detected,0 of 3,0 of 9
KSCQSVLYESRNKNSVS,WASTRES,QQYHRLPTS,not detected,0 of 3,0 of 9
KSSQSDLYESRNKNSVA,WASTRED,QQYHRLMLS,not detected,0 of 3,0 of 9
KSSQSVLYESRNKNSVA,WSSTRES,QQIHRLPPS,not detected,0 of 3,0 of 9
KSRQSVLYPSRNKNSVA,WASTRES,QQYHRLILS,not detected,0 of 3,3 of 9

Values reported by Engelhart et al. 2022, doi:10.1038/s41597-022-01779-4 (FLAb copy).